Test results as given in paper PMC4457528, “Identification of Novel Small Molecule Inhibitors of Oncogenic RET Kinase” (PLoS ONE, 2015).
Like-named read-outs stand apart in the source and are kept apart here.

Sequences of proteins named here, by UniProt entry; tags and fusion partners are left off. Residues count along the entry.
UniProt P07949, 29-1072 isoform P07949-2 A883F: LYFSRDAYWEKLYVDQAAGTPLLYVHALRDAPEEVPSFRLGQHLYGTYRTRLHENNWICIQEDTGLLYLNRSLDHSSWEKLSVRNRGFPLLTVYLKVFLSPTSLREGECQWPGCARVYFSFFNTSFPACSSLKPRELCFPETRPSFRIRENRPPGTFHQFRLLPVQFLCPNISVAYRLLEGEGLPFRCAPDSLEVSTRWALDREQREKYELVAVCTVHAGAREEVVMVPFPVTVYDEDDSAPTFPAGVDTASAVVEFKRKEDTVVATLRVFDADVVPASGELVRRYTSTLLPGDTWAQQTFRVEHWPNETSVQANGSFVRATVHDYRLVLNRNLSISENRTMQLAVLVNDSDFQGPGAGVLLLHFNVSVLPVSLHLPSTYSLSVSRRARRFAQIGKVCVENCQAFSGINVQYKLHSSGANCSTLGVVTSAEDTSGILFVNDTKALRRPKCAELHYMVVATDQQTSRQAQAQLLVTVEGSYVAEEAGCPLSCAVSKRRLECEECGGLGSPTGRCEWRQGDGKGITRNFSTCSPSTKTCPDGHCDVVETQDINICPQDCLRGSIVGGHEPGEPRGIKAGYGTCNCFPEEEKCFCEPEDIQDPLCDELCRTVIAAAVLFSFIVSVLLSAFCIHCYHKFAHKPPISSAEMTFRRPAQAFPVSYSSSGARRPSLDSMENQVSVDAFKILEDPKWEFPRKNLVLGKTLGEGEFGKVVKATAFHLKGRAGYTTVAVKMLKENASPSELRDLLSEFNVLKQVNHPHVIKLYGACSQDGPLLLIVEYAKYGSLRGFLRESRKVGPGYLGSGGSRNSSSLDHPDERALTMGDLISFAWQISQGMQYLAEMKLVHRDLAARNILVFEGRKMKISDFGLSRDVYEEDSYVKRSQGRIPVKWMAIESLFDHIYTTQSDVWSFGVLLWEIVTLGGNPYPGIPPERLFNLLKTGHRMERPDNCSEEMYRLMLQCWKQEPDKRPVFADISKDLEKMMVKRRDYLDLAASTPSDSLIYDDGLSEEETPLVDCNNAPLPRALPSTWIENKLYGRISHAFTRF
UniProt P07949, 29-1114 V804L: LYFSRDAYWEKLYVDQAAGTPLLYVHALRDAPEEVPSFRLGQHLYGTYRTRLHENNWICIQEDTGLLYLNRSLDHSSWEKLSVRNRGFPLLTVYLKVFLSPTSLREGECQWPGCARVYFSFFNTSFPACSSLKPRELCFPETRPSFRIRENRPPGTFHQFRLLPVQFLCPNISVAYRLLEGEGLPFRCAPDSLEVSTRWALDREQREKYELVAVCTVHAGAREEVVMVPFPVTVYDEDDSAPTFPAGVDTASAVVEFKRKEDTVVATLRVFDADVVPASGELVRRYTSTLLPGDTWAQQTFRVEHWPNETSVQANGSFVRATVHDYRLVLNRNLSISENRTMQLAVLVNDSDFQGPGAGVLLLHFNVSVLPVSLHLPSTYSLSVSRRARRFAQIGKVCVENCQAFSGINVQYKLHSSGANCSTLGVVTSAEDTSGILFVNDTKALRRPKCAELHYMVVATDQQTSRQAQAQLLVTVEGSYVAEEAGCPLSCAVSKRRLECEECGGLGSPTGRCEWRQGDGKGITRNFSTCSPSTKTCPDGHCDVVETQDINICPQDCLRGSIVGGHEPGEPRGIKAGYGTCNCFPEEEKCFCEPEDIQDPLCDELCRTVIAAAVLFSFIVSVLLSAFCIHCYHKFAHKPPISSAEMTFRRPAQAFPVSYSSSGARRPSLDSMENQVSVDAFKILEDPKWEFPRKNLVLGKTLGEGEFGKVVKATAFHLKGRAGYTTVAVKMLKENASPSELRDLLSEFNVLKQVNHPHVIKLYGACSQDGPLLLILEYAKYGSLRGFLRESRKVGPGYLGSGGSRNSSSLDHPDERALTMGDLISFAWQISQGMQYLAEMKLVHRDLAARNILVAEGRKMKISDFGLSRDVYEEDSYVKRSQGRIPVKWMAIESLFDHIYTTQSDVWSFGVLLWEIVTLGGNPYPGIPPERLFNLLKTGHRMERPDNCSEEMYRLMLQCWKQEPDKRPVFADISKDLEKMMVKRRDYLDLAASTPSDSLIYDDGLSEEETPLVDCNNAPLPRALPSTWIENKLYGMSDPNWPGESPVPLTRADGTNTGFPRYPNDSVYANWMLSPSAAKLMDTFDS
UniProt P07949, 29-1114 V804M: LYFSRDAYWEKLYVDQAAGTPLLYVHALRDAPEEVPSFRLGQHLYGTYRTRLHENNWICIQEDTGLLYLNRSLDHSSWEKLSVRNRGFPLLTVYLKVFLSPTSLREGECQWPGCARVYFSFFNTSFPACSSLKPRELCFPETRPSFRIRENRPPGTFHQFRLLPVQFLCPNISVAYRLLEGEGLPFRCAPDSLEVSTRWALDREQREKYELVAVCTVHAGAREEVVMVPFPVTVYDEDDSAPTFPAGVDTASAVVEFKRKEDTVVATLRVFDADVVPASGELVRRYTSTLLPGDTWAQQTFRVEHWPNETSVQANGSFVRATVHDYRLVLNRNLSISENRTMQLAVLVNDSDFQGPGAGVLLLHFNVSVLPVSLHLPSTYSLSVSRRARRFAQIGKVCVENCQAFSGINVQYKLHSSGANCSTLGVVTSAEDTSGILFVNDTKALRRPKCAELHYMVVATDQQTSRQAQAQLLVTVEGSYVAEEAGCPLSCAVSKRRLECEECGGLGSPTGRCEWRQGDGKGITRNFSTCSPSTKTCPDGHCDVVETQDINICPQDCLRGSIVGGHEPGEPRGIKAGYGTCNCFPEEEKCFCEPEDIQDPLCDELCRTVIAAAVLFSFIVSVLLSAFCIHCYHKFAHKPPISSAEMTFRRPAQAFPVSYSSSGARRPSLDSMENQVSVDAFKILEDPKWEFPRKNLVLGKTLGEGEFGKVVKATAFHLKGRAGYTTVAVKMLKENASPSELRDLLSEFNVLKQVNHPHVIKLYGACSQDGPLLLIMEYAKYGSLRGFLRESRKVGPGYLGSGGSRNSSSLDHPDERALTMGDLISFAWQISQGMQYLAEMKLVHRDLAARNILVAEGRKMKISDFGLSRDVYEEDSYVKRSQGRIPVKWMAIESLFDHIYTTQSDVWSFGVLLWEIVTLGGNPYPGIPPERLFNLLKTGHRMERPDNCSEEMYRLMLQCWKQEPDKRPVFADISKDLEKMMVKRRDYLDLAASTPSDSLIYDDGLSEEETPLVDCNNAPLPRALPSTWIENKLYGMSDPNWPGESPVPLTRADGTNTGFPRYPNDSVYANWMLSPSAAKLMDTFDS

Columns and labels:
[1] = tested on: RET/E768D, RET/L790F, RET/V804L, RET/V804M, RET/A883F, RET/S891A; settings: RAT1 cells, 2 hr, compared with RET/C634R and RET/M918T
[2] = molecular target: RET/E768D, RET/L790F, RET/V804L, RET/V804M, RET/A883F, RET/S891A (Homo sapiens, UniProt P07949, A883F); settings: A883F, RET activation loop
RAT RET/C634R cells = type: cell-based; settings: bound stated for RET/C634R or RET/M918T, read-out: IC50 of proliferation of RAT1 expressing RET/C634R
Description: (§1) To compare cell growth, we performed unpaired Student’s t test using the Instat software program (Graphpad Software Inc). P values were two-sided, and differences were considered statistically significant at P <.02. IC50 doses were calculated through a curve fitting analysis from last day values using the PRISM software program (Graphpad Software Inc).

KinomeScan kinase panel [3] = molecular target: T1, KinomeScan kinase panel (Homo sapiens, UniProt P07949, V804L); assay: KinomeScan kinase panel, single concentration 10 µM; type: binding; settings: read-out: score (%)
T1 construct: purchased DiscoveRx (KinomeScan)

KinomeScan kinase panel [4] = molecular target: T2, KinomeScan kinase panel (Homo sapiens, UniProt P07949, V804M); assay: as above; type: binding; settings: read-out: score (%)
T2 construct: purchased DiscoveRx (KinomeScan)

RET/V804M = molecular target: T3, RET/V804M (Homo sapiens, UniProt P07949, V804M); assay: Invitrogen SelectScreen in vitro kinase assay, RET/V804M; type: biochemical; settings: read-out: in vitro IC50 dose: RET (V804M)
T3 construct: purchased Invitrogen (SelectScreen service)
Source text: (§2) Fig 2 ALW-II-41-27, HG-6-63-01 and XMD15-44 chemical structure. A) Chemical structure of the studied compounds: red colour indicates the “tail”, black colour indicates “linker”, and pink colour indicates the “head” part in the binding. B) Modelling of ALW-II-41-27 (left), XMD15-44 (middle) and HG-6-63-01(right) binding to the DFG-out conformation of RET.
(§3) Though more rarely than C634 and M918 mutations, other mutations targeting RET residues in the tyrosine kinase domain can cause familial or sporadic MTC [1, 2]. […] Of note, RET A883 residue is located in the VI Hanks domain adjacent to RET activation loop and it corresponds to G372 residue in ABL kinase whose mutation has been isolated in imatinib-resistant patients.

RET/V804L = molecular target: T4, RET/V804L (Homo sapiens, UniProt P07949, V804L); assay: Invitrogen SelectScreen in vitro kinase assay, RET/V804L; type: biochemical; settings: read-out: in vitro IC50 dose: RET (V804L)
T4 construct: purchased Invitrogen (SelectScreen service)
Source text: as §2, §3

RAT RET/M918T cells = assay: Growth curves, RAT1 cells transformed by RET/M918T; type: cell-based; settings: bound stated for RET/C634R or RET/M918T, read-out: IC50 of proliferation of RAT1 expressing RET/M918T
Description: as §1

RET V804M/L = settings: cited from earlier work

| SMILES | sensitivity of RET/L790F, RET/V804M and RET/S891A phosphorylation [1] | RET inhibitory effect with A883F mutation [2] | IC50 (RAT RET/C634R cells) [nM] | remaining binding at 10 µM (KinomeScan kinase panel [3]) [%] | remaining binding at 10 µM (KinomeScan kinase panel [4]) [%] | IC50 (RET/V804M) [nM] | IC50 (RET/V804L) [nM] | IC50 (RAT RET/M918T cells) [nM] | remaining binding at 10 µM (KinomeScan kinase panel [3]; RET(V804L), 10 µM) [%] | remaining binding at 10 µM (KinomeScan kinase panel [4]; RET(V804M), 10 µM) [%] | remaining binding at 10 µM (KinomeScan kinase panel [3]; kinase RET(V804L), 10 µM) [%] | remaining binding at 10 µM (KinomeScan kinase panel [4]; kinase RET(V804M), 10 µM) [%] | effect of RET V804M on drug sensitivity (RET V804M/L; V804M) | fold increase of in vitro IC50 dose for RET by V804M/L (RET V804M/L) [fold] |
| --- | --- | --- | --- | --- | --- | --- | --- | --- | --- | --- | --- | --- | --- | --- |
| CCN1CCN(Cc2ccc(NC(=O)c3ccc(C)c(NC(=O)c4cncc(-c5cccs5)c4)c3)cc2C(F)(F)F)CC1 [ALW-II-41-27] | comparable to that of RET/C634R and RET/M918T proteins | impaired | ≤ 56 | 0 | 0 | 15.8 | 94.2 | ≤ 56 |  |  |  |  |  |  |
| CCN1CCN(Cc2ccc(NC(=O)c3ccc(C)c(/C=C/c4cnc5[nH]ccc5c4Cl)c3)cc2C(F)(F)F)CC1 [HG-6-63-01, (E)-3-(2-(4-chloro-1H-pyrrolo[2,3-b]pyridin-5-yl)vinyl)-N-(4-((4-ethylpiperazin-1-yl)methyl)-3-(trifluoromethyl)phenyl)-4-methylbenzamide] | comparable to that of RET/C634R and RET/M918T proteins | impaired | ≤ 56 |  |  | 33.3 | 329 | ≤ 56 | 0 | 0 |  |  |  |  |
| CCN1CCN(Cc2ccc(NC(=O)c3ccc(C)c(C#Cc4cccnc4)c3)cc2C(F)(F)F)CC1 [XMD15-44] | comparable to that of RET/C634R and RET/M918T proteins | impaired | ≤ 56 |  |  | 11.9 | 99.3 | ≤ 56 |  |  | 0 | 0 |  |  |
| COc1cc2nccc(Oc3ccc(NC(=O)C4(C(=O)Nc5ccc(F)cc5)CC4)cc3)c2cc1OC [cabozantinib] |  |  |  |  |  |  |  |  |  |  |  |  | resistance |  |
| COc1cc2c(Nc3ccc(Br)cc3F)ncnc2cc1OCC1CCN(C)CC1 [vandetanib] |  |  |  |  |  |  |  |  |  |  |  |  |  | 50 |
